Assay results: patent publication US8809010B2, “Method for prophylactic treatment of alzheimer's disease using inhibitors of glutaminyl cyclase and glutamate cyclases” (Probiodrug AG, priority 2003, dated 2014)

Substrate: NC(=O)CCC(N)C(=O)Nc1ccc2ccccc2c1
Test: Continuous spectrophotometric QC assay (glutamate dehydrogenase coupled), substrate kinetics;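 further: initial rates read on a microplate reader at 30 °C, with enzyme activity quantified against an ammonia calibration curve under the same assay conditions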
Type: biochemical
Details: other: Human QC; pH 8.8

B1: human QC (Homo sapiens) (protein)
chain: VSPSASAWPEEKNYHQPAILNSSALRQIAEGTSISEMWQNDLQPLLIERYPGSPGSYAARQHIMQRIQRLQADWVLEIDTFLSQTPYGYRSFSNIISTLNPTAKRHLVLACHYDSKYFSHWNNRVFVGATDSAVPCAMMLELARALDKKLLSLKTVSDSKPDLSLQLIFFDGEEAFLHWSPQDSLYGSRHLAAKMASTPHPPGARGTSQLHGMDLLVLLDLIGAPNPTFPNFFPNSARWFERLQAIEHELHELGLLKDHSLEGRYFQNYSYGGVIQDDHIPFLRRGVPVLHLIPSPFPEVWHTMDDNEENLDESTIDNLNKILQVFVLEYLHL
notes: The cDNA of the mature QC starting with codon 38 was fused in frame with the plasmid encoded 6× histidine tag; 6xHis; made in house; host or cells: Pichia pastoris X33 (pPICZαB, secreted); also E. coli M15 (pQE-31)
Question: With B1 as the protein, how does the kcat/Km read?
Answer: The kcat/Km was 294000 ± 6000 M⁻¹ s⁻¹.
